The results in this text go back to patent publication US20260091008A1, “DOUBLE TARGETED CONSTRUCTS TO AFFECT TUMOR KILL” (Cornell University, priority 2016, published 2026).

By UniProt entry, the sequences of proteins in these tests, tags left out. Residues count along the entry.
UniProt P02768, 25-609 limits assumed: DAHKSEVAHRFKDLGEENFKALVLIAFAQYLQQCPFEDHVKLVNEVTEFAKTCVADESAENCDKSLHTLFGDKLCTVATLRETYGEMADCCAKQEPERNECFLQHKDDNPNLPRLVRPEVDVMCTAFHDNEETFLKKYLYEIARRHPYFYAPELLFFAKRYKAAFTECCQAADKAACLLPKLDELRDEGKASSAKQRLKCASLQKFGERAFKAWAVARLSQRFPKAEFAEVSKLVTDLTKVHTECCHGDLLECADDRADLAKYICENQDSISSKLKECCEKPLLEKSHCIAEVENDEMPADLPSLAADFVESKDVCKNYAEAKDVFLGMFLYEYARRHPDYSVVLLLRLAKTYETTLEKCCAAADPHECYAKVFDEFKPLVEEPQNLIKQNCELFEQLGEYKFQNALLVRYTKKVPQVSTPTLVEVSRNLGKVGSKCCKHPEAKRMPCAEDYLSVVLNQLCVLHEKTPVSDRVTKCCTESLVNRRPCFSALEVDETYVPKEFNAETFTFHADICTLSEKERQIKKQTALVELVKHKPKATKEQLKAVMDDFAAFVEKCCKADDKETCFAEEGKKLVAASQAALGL

Structures are written as SMILES.

The target in one series is HSA (Homo sapiens, UniProt P02768). Description: HSA affinity determination on immobilized-HSA microcolumns. Particulars: read-out: Kd for HSA; HSA microcolumn, phosphate buffer pH 7.4, room temperature.
The next series concerns LNCaP cell xenografts. Description: Tissue distribution of 131I-labeled compounds in mice bearing LNCaP xenografts. Particulars: for Blood t1/2 for the distribution phase / Blood t1/2 for the elimination phase: bi-exponential dual compartment fit of blood data. The format is in vivo.

In the case of `O=C(O)CC[C@H](NC(=O)N[C@@H](CCCNC(=O)CCc1ccc([131I])cc1)C(=O)O)C(=O)O`, the Kd on HSA was found to be 22.9 µM. Further, the “Tumor-to-kidney (T/K) ratio” value in the series on LNCaP cell xenografts (12 h post injection) is more than 1. Besides, the “Blood t1/2 for the distribution phase” value with LNCaP cell xenografts stood at 2.1 h. The “Blood t1/2 for the elimination phase” value in the series with LNCaP cell xenografts came to 17.3 h. The “Blood activity (in words)” value in the series on LNCaP cell xenografts (blood, 12 h post injection) is reported as “negligible activity”. Also, the results for the Kidney uptake in the series on LNCaP cell xenografts (1 h post injection) and with LNCaP cell xenografts (24 h post injection) were 52.18±5.35 % ID/g and 2.27±1.41 % ID/g, respectively. In addition, in the series on LNCaP cell xenografts (liver, 1 h post injection), the Liver uptake is on record as 12.46±1.63 % ID/g. In the series on LNCaP cell xenografts (small intestine, 1 h post injection), this compound showed a Small intestine uptake of 13.09±2.98 % ID/g. The Tumor uptake in the series with LNCaP cell xenografts (1 h post injection) is recorded as 7.20±0.10 % ID/g; in the series on LNCaP cell xenografts (6 h post injection) it was 3.35±1.70 % ID/g.
With `O=C(O)CC[C@H](NC(=O)N[C@@H](CCCNC(=O)CCCc1ccc([131I])cc1)C(=O)O)C(=O)O`, the Kd on HSA was 2.1 µM. Besides, the “Blood t1/2 for the distribution phase” value in the series on LNCaP cell xenografts turned out to be 3.85 h. Besides, the “Blood t1/2 for the elimination phase” value in the series on LNCaP cell xenografts is recorded as 3,300 h. For the same compound, the Blood activity in the series on LNCaP cell xenografts (blood, 1 h post injection) is on record as 16.20±4.68 % ID/g; with LNCaP cell xenografts (blood, 48 h post injection) it was 12.71±1.55 % ID/g. In addition, the Kidney uptake in the series on LNCaP cell xenografts (1 h post injection) is listed as 16.21±0.97 % ID/g; in the series with LNCaP cell xenografts (24 h post injection), 22.26±2.48 % ID/g. The Lungs uptake with LNCaP cell xenografts (lungs, 1 h post injection) amounted to 6.12±0.95 % ID/g. In the series on LNCaP cell xenografts (time not stated, stable over the course of the 48 h), this compound showed a Tumor uptake of 4.81±1.27 % ID/g.

The term Kd denotes the free concentration of one partner at which half of the binding sites on the other are occupied at equilibrium, for simple one-to-one binding.
